Reference: publication PMC7016908 (ACS Omega, 2020)

The chains behind the UniProt entries cited, without tags or fusion partners. Residues count along the entry.
UniProt P28335, 33-458: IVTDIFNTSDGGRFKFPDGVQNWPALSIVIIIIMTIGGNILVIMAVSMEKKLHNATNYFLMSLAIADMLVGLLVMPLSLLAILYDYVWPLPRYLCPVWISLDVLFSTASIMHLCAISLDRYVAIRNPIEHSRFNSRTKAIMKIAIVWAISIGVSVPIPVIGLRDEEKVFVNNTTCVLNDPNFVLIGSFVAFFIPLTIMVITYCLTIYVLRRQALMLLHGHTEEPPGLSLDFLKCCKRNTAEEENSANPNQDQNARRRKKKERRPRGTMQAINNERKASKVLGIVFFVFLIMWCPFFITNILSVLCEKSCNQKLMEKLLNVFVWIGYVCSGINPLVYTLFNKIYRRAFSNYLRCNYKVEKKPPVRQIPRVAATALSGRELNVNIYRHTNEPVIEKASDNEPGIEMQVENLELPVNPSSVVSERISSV

Target: human 5-HT2C receptor (Homo sapiens, UniProt P28335)
Test: Radioligand displacement binding, [3H]mesulergine, HeLa-5-HT2C cell membranes
Details: read-out: KD of radioligand at human 5-HT2C receptor

Substance [^3H]-mesulergine [reference compound] has a Kd of 0.67 nM.
